This series deals with T1, recombinant mouse stearoyl-CoA desaturase 1 (mSCD1) (UniProt P21147).
T1 sequence: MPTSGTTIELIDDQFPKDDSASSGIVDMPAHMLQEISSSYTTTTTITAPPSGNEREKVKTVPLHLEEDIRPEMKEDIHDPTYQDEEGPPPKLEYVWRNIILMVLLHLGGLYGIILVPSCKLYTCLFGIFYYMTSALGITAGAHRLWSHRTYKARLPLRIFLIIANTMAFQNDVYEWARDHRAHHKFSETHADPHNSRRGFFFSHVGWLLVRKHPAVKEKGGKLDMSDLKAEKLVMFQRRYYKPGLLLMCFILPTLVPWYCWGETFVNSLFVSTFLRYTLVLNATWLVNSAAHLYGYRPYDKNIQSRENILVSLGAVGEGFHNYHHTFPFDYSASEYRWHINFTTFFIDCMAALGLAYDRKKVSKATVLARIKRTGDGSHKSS

For soluble human cytochrome b5 reductase, the “% change vs. mSCD1 (conversion of 18:0-CoA to 18:1-CoA)” value is reported as -14.2%.
